Literature values as cited in patent publication US8299237B2, “Nucleic acid sequences comprising NF-κB binding site within O(6)-methylguanine-DNA-methyltransferase (MGMT) promoter region and uses thereof for the treatment of cancer and immune-related disorders” (Hadasit Medical Research Services & Development Ltd., priority 2007, dated 2012).

Conditions: in vivo, iv; cited from earlier work

**Q.** With “poly (Lactide-co-glycolide) monomethoxypoly (ethyleneglycol) [PLGA-mPEG nanoparticles]” as the substance, how does the “pharmacokinetic behaviour (in words)” value read?
**A.** linear and dose-independent pharmacokinetic
